The values below are quoted from earlier work in patent US11319289B2, “5-hydroxy pyridine-based compound for use as P2X1 and P2X3 receptor antagonist and pharmaceutical composition comprising same” (GWANGJU INSTITUTE OF SCIENCE AND TECHNOLOGY, priority 2017, dated 2022).

Chains of the proteins cited; added tags and fusions are not shown.
UniProt P56373, whole entry: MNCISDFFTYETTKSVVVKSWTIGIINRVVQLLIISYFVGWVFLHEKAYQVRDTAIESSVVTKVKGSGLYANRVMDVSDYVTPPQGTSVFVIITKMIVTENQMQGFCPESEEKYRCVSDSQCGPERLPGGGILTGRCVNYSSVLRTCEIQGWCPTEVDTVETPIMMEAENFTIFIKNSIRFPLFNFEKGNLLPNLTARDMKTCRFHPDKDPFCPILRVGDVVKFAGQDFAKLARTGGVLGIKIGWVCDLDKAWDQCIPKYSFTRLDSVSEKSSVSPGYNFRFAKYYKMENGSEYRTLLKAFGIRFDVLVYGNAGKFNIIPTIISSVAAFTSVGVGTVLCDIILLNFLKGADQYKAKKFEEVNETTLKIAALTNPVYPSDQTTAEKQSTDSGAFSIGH

The target of this data set is hP2X3 receptor (Homo sapiens, UniProt P56373). Conditions: read-out: IC50 for hP2X3 receptor, previously reported; reported by the present inventors in previous studies; cited from earlier work.

As for `Cc1nc(Cc2cccc(Oc3ccccc3)c2)c(C=CC(=O)O)c(C=O)c1O`, the IC50 (in general, the concentration that inhibits the measured activity by half) is 60 nM.
